Apparent affinities of Ab-91 variants for a coronavirus HR2 peptide

The target is the same throughout: PDVDLGDISGINAS, from the HR2 region of SARS-CoV-2 spike.

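Phage display of a naive human antibody library on the peptide gave the parent. The library (AAYL51) carries one to three amino acid substitutions per variant, with no insertions or deletions. Affinity was read by AlphaSeq, a pooled yeast mating assay with surface-displayed partners. After mating in shaken culture at 30 °C for 16 h, diploids were selected and their barcode pairs sequenced. Read counts were normalised to the haploid input and turned into Kd by a linear fit to BCL2-family pairs of known affinity, for each replicate. There are three technical replicates.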

Each scFv is VL, a (GGGGS)3 linker, VH, as in the parent Ab-91, and differs from it in the CDRs of the heavy chain only.
VL: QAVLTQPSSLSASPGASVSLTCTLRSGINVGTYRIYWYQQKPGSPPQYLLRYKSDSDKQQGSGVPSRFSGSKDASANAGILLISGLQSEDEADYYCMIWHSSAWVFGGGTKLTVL
VH: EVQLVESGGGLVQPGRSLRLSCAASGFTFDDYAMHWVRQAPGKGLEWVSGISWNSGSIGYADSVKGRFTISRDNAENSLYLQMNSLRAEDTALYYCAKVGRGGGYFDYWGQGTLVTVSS

The parent's heavy chain CDRs are GFTFDDYAMH, GISWNSGSIGYADSVK, VGRGGGYFDY; each variant's own CDRs replace them letter for letter. Affinities are written as log10 Kd with Kd in nM; a lower number is a better binder. A mean of the replicates is given; it leaves out those without a signal. Where no diploid with the target was found in that replicate, the entry reads "nd": below detection, most likely a poor binder, though not proof of it. Three control strains display no target. For library AAYL51, 21% of the pairings with them gave a signal, with a median of 4.54 and one signal in twenty below 3.26, so weak values seen in few replicates may be background. For each scFv, signals with the empty controls are counted beside the result, with their mean in brackets.

CDR-H1	CDR-H2	CDR-H3	log10 Kd, replicates	mean log10 Kd (nM)	control signals
GFTFDAYAMH	GIMWNSGSIGYADSVK	VGRDGGYFDY	nd / 5.63 / nd	5.63	2/9 (5.03)
GFTMDDYAMH	GISWNSGSIMYADSVK	VLRGGGYFDY	nd / nd / 4.46	4.46	0/9
GFTFDDYAMH	GISWNSGSIGYADSRK	VGRGGGYFDY	nd / 5.77 / nd	5.77	3/9 (4.24)
GFTFDDMAMH	GISRNSGNIGYADSVK	VGRGGGYFDY	nd / nd / nd	nd	0/9
GFTFDDYAMH	GISWNSGSIHYADSSK	VGLGGGYFDY	nd / nd / nd	nd	5/9 (4.40)
GFTFDDYAMH	GISWNSGSSGYADQVK	VGRGGGYFYY	1.97 / 1.79 / 1.58	1.78	6/9 (4.58)
GFCFQDYAMH	GISWNSQSIGYADSVK	VGRGGGYFDY	nd / nd / nd	nd	0/9
GFTFDDLAMH	GISWNRGSQGYADSVK	VGRGGGYFDY	nd / 4.27 / nd	4.27	0/9
GFTFDQYAMS	GISWISGSIGYADSVK	VGRGGGYFDY	nd / nd / nd	nd	0/9
GFTFDDNAMH	GISWNSGSITYADSVK	VGRIGGYFDY	nd / nd / nd	nd	0/9
GFTFDDYAMH	GISWNSCSIGYADSVI	VGRGGGYFDY	1.44 / 1.65 / 1.03	1.37	1/9 (5.10)
GFTLDDYAMH	GISWNSGSIGYADSVK	AERGGGYFDY	nd / nd / nd	nd	2/9 (4.48)
GFTQDDYAMH	WISWNSGSIGYADSVK	VGRGGGYFDY	nd / nd / nd	nd	0/9
GFTFDDYAMH	GISWNSGPIGYADKRK	VGRGGGYFDY	nd / nd / nd	nd	1/9 (3.57)
GFTFDAYAMH	GISWNSGSGGYADSVK	VGRGGGYFDY	5.77 / 4.21 / 4.67	4.88	8/9 (4.25)
GFTFDDYAMH	GISWNSGSIGYADSVK	SGRSGGYFDP	nd / nd / nd	nd	0/9
GFTFDDYAMH	GISWNSGSIGYADSVV	VGRGMRYFDY	nd / 6.51 / nd	6.51	5/9 (4.87)
GRTFDDYAMH	GISWNSGSIGYARSVK	VGRGGGCFDY	nd / nd / nd	nd	2/9 (4.23)
GFTFDDYAEH	GISWNSGSIGYADSVK	VGSGGGYADY	nd / nd / nd	nd	0/9
GFTFNDYAMH	GIHWNSGSIGYADSVK	VGRGGGYHDY	nd / nd / nd	nd	0/9
GFTFDDYADG	GISWNSGSIGYAASVK	VGRGGGYFDY	nd / 4.99 / nd	4.99	1/9 (4.49)
GFTFDDYAMH	GISWPSGSIGYADSVK	VGRGGGWEDY	5.59 / nd / 4.78	5.18	4/9 (4.75)
GFTFDDYAMC	GISWNPGSIFYADSVK	VGRGGGYFDY	nd / nd / nd	nd	0/9
GFTFYDYAMH	SISWNSGAIGYADSVK	VGRGGGYFDY	4.22 / 6.70 / 5.65	5.52	6/9 (4.95)
GFTFDDYAMH	EIRWNSPSIGYADSVK	VGRGGGYFDY	nd / nd / nd	nd	1/9 (3.00)
GFTFDDYAMH	GRSWNSGSIGYADSVK	VGRKGGYFMY	5.82 / nd / nd	5.82	5/9 (4.76)
GFTFDDYAMH	GISWNHGSIGYADSVP	VGRGGGYFDL	nd / nd / nd	nd	1/9 (3.25)
GFTFDDYAMH	GIFWNSGSIGYAASVK	VLRGGGYFDY	nd / nd / nd	nd	2/9 (5.57)
DFTFDDYAMH	GISWNSGSIGYADSVK	VLRGGGYFDS	nd / nd / nd	nd	1/9 (2.75)
GFTFDDYAMH	GISWNSGSIRYADSVK	VGRGGGYFDY	nd / nd / nd	nd	0/9
GFTFDDYAMH	GISWNSFVIGYADSVK	PGRGGGYFDY	5.16 / 5.04 / 4.41	4.87	3/9 (5.10)
GFTFNDYAMH	GISWNSGHIGDADSVK	VGRGGGYFDY	4.54 / 4.72 / 4.92	4.73	5/9 (4.61)
YFTFDDYAMH	GISWNSGSIGAADSVK	VGRGGGYIDY	4.69 / nd / nd	4.69	4/9 (4.41)
GFTFDDYAMH	GISYNSGMIGYADSTK	VGRGGGYFDY	nd / nd / nd	nd	2/9 (3.12)
GFTFDDYAMH	GRSWNWGSIGYADSVK	VGRGGGYFDY	3.90 / nd / nd	3.90	0/9
GFTFDFYAMH	QIAWNSGSIGYADSVK	VGRGGGYFDY	nd / nd / nd	nd	0/9
GFTFDDYAMH	GISWNSGSQGYLDSVK	VGRGGGVFDY	nd / nd / nd	nd	0/9

The first 5 entries again:

{"CDR-H1": "GFTFDAYAMH", "CDR-H2": "GIMWNSGSIGYADSVK", "CDR-H3": "VGRDGGYFDY", "log10 Kd, replicates": "nd / 5.63 / nd", "mean log10 Kd (nM)": "5.63", "control signals": "2/9 (5.03)"}
{"CDR-H1": "GFTMDDYAMH", "CDR-H2": "GISWNSGSIMYADSVK", "CDR-H3": "VLRGGGYFDY", "log10 Kd, replicates": "nd / nd / 4.46", "mean log10 Kd (nM)": "4.46", "control signals": "0/9"}
{"CDR-H1": "GFTFDDYAMH", "CDR-H2": "GISWNSGSIGYADSRK", "CDR-H3": "VGRGGGYFDY", "log10 Kd, replicates": "nd / 5.77 / nd", "mean log10 Kd (nM)": "5.77", "control signals": "3/9 (4.24)"}
{"CDR-H1": "GFTFDDMAMH", "CDR-H2": "GISRNSGNIGYADSVK", "CDR-H3": "VGRGGGYFDY", "log10 Kd, replicates": "nd / nd / nd", "mean log10 Kd (nM)": "nd", "control signals": "0/9"}
{"CDR-H1": "GFTFDDYAMH", "CDR-H2": "GISWNSGSIHYADSSK", "CDR-H3": "VGLGGGYFDY", "log10 Kd, replicates": "nd / nd / nd", "mean log10 Kd (nM)": "nd", "control signals": "5/9 (4.40)"}

Data: MIT Lincoln Laboratory AlphaSeq set, Engelhart et al. 2022, doi:10.1038/s41597-022-01779-4, as distributed in FLAb.